Reference: patent publication US8415356B2, “Isoquinolinone derivatives as NK3 antagonists” (H. Lundbeck A/S, priority 2008, dated 2013)

Chains of the proteins cited; added tags and fusions are not shown.
UniProt P29371, whole entry: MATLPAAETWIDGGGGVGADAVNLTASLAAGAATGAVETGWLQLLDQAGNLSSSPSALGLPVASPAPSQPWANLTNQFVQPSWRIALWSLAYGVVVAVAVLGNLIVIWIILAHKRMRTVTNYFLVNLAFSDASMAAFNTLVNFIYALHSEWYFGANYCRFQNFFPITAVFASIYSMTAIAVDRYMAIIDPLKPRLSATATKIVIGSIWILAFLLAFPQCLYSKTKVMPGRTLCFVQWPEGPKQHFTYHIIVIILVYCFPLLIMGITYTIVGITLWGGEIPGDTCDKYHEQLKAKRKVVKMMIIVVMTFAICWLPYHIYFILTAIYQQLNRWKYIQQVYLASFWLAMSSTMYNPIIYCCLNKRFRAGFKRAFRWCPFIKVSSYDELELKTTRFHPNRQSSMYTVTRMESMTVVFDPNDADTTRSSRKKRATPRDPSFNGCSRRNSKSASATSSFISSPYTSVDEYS

Target: T1, human NK3 receptor (Homo sapiens, UniProt P29371)
T1 construct: expressed in transfected cells; membranes prepared from them
Experiment: NK3 receptor efficacy and potency assay (FLIPR Calcium 4)
Type: cell-based
Settings: BHK cells expressing human NK3 receptor, calcium fluorescence
Experimental: BHK cells stably expressing the human NK3 receptor were seeded in 100 μl media in black walled clear-base 96-wells plates (Costar) aiming at a confluency of 95-100% at the day of assay. The assay was performed according to the FLIPR Calcium 4 Assay kit (Molecular Devices). At the day of the assay, the media was removed and the cells were washed once with the HBSS buffer (Hanks BSS buffer, pH 7.4 containing 20 mM Hepes) before 100 μl of a solution of the calcium assay reagent dissolved in the HBSS buffer containing 2.5 mM probinicid was added to the cells. The plates were incubated for 60 min at 34° C., 10% CO2 before use in the FLIPR for examination of fluorescence.
For efficacy and potency evaluation of compounds, these were diluted in HBSS buffer prior to test. For test of agonist activity, 25 μl of the diluted compound solution was added and the plate was analyzed for 5 minutes in the FLIPR. […] The plates were subsequently analyzed for 5 minutes before the assay was terminated. The maximal increase in fluorescence over background following each ligand addition was determined.

neurokinin B [NKB]
EC85 concentration of NKB: ~4 nM
